Assay results: publication PMC3166367

What was measured:
[1] = biological target: dimeric (β15-66)2 fragment of fibrin β chain (full-length βN-domain, dimeric); test: ELISA
[2] = biological target: VE-cad(3) fragment (residues Phe210-Phe325), third domain of the extracellular portion of VE-cadherin; test: SPR

| Substance | pKd [1] | pKd [2] |
| --- | --- | --- |
| VE-cad(3) fragment (residues Phe210-Phe325), third domain of the extracellular portion of VE-cadherin (domain or fragment) | 7.74 |  |
| dimeric (β15-66)2 fragment of fibrin β chain (full-length βN-domain, dimeric) (domain or fragment) |  | 7.03 |

pKd: −log10 of the molar value.
